The test has as its target HLA-A*0201 molecule on T2 cells (human (endogenous in T2) | human). Put plainly: flow cytometry on cells; T2 binding assay: T2 cells (1 x 10^6 cells/ml) with peptide (50 μg/ml) and 3 μg/ml human β2-M in serum-free RPMI 1640, 18 h, 37°C; surface HLA-A2 stained with BB7.2 PE-Cyanine7; fluorescence index (FI); FI > 1.5 classed as high affinity.

The substance HBcAg 18-27 peptide had an FI (fluorescence index) of 1.21.

Values taken from PMC6286779, “HLA-A2-Restricted Epitopes Identified from MTA1 Could Elicit Antigen-Specific Cytotoxic T Lymphocyte Response” (Journal of Immunology Research, 2018).
